The text below walks through data of US20200207989A1, “FLUORESCENT PROBE FOR ALDH3A1 DETECTION” (The University of Tokyo, priority 2016, published 2020).

By UniProt entry, the sequences of proteins in these tests, tags left out.
UniProt P30838, whole entry: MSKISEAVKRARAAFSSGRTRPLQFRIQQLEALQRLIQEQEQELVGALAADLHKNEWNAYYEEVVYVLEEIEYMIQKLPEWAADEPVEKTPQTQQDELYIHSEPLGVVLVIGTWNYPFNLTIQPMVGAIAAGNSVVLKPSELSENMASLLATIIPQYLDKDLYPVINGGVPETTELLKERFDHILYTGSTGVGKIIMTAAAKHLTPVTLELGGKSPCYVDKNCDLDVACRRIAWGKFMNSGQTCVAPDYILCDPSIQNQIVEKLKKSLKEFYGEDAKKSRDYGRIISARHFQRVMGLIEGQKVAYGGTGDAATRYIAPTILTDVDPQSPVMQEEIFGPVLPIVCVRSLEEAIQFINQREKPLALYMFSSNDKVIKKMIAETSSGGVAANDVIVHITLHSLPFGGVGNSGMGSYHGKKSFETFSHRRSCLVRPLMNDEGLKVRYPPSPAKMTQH
UniProt P00352, whole entry: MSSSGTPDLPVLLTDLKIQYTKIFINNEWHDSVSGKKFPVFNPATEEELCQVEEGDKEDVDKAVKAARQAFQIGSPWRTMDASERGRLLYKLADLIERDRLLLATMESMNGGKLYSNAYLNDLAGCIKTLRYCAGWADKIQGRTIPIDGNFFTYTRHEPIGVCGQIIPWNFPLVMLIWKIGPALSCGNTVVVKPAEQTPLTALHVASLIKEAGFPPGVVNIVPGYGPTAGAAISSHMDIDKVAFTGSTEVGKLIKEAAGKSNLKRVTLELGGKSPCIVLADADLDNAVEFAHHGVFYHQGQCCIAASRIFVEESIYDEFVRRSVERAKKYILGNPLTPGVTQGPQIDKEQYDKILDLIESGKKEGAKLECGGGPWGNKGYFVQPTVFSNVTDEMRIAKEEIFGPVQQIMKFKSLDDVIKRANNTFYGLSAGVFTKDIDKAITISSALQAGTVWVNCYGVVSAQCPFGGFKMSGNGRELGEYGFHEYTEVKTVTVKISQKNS

Series [1] deals with Human recombinant ALDH3A1 (Homo sapiens, UniProt P30838). In words: Reactivity of probes to recombinant ALDH3A1 (UPLC/MS/MS). The conditions noted are these: 10-100 nM ALDH, 10-80 μM compound, Tris buffer pH 7.5, 30 minutes at 37° C.; ◯/X not defined by a legend.
Series [2] has as its target ALDH1A1 (Homo sapiens, UniProt P00352). Description: Kinetic characteristics (Michaelis-Menten Km, Kcat) with ALDH1A1. To be noted: five minutes at 37° C., Tris buffer pH 7.5.
Series [3] is described as follows: HPLC (LC/MS) retention time as measure of hydrophilicity / membrane permeability. To be noted: C18 column, 20% B 2.5 min, 20%-->100% B 5 min, 500 μL/min, neutral conditions, mean±SD of three tests.

As usually defined, the Km is the concentration of substrate that gives half-maximal velocity. Take `CC1=CC(C)=[N+]2C1=Cc1ccc(CCC(=O)NCC=O)n1[B-]2(F)F`: the “Reactivity to ALDH3A1” value in series [1] was “showed no reactivity to ALDH3A1”. In series [2], the “Kcat ALDH1A1” value turned out to be 7.75 ± 6.28 s⁻¹. Moreover, in series [2] (read-out: Km ALDH1A1), the Michaelis constant (Km) came to 161 µM. The “Retention Time, Aldehyde form” value in series [3] was “in the lower 7 minutes”; in series [3] (listed as ALDELFLUOR ®), 7.283 ± 0.003 min. Also, the results for the “Retention Time, carboxylate (carboxylic acid form)” value in series [3] and in series [3] (listed as ALDELFLUOR ®) were 6.741 min and 6.741 ± 0.001 min, respectively.
